# Assay results taken from patent publication US7727980B2, “Tricyclic androgen receptor modulator compounds and methods” (priority 2001, dated 2010).
# Amino acid sequences for entries named in this document (tags omitted). A change or cut given only in a name is not applied to a line headed by its entry.
# UniProt P10275: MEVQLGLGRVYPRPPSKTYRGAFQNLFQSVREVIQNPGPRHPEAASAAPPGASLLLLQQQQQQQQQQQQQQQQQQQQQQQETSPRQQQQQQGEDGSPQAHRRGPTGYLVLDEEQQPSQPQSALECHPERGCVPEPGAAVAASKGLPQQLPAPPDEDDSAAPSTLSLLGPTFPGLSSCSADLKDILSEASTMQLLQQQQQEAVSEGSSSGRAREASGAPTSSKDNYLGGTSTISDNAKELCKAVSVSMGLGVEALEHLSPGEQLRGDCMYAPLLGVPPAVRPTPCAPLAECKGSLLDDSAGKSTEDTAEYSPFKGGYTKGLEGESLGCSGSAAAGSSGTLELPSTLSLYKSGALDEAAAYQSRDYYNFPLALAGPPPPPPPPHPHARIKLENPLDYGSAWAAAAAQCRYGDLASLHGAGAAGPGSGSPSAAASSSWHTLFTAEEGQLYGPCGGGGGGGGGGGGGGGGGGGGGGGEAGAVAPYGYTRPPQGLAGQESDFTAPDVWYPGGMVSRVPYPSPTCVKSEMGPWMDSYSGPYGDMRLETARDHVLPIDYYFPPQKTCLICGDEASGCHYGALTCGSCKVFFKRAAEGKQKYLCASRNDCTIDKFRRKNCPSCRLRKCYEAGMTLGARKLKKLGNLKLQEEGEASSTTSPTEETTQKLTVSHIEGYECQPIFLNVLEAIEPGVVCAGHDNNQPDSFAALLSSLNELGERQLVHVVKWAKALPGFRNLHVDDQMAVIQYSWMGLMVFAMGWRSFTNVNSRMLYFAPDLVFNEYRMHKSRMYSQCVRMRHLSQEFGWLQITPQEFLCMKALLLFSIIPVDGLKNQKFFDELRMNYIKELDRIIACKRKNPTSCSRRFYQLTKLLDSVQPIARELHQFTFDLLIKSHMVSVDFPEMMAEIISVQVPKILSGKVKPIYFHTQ
# Where two headings read alike, the source gives them in different places.
# Tests used:
# human AR [1] = molecular target: T1, human AR (Homo sapiens, UniProt P10275); assay: Co-transfection assay, AR agonist activity, CV-1 cells; assay type: cell-based; set-up: expressed in transfected cells; host or cells: CV-1 cells (African green monkey kidney fibroblasts), transient transfection with pRShAR; details: for AR Agonist CV-1 Cells Efficacy (%): percent maximal response relative to reference agonist DHT
# human AR [2] = molecular target: T1, human AR; assay: Co-transfection assay, AR antagonist activity in presence of DHT, CV-1 cells; assay type: cell-based; set-up: expressed in transfected cells; host or cells: CV-1 cells (African green monkey kidney fibroblasts), transient transfection with pRShAR; details: for IC50: antagonist potency or IC50, DHT at its EC50 concentration; for AR Antagonist CV-1 Cells Efficacy (%): percent maximal inhibition, DHT at its EC50 concentration
# human AR [3] = molecular target: T1, human AR; assay: AR whole cell competitive binding assay (3H-DHT), transfected COS-1 cells; set-up: expressed in transfected cells; transient transfection with pRShAR; details: 1 nM 3H-DHT, Cheng-Prusoff from IC50
# [4] = AR Agonist CV-1 Cells Potency (nM), agonist potency or EC50
# [5] = agonist potency or EC50, read-out: AR Agonist CV-1 Cells Potency
Compound,EC50 (human AR [1]; [4]) [nM],IC50 (human AR [2]) [nM],AR Antagonist CV-1 Cells Efficacy (%) (human AR [2]),EC50 (human AR [1]; [5]) [nM],AR Agonist CV-1 Cells Efficacy (%) (human AR [1]),Ki (human AR [3]) [nM]
"CC1CCc2cc3[nH]c(=O)cc(C(F)(F)F)c3cc2N1CC1CC1 (centres unmarked) [Compound 195, 4-Trifluoromethyl-7-methyl-6-cyclopropylmethyl-6,7,8,9-tetrahydropyrido[2,3-g]quinolin-2(1H)-one]",11,,,,,
"5-Methyl-6-acetyl-7-(2,2,2-trifluoroethyl)-4-trifluoromethyl-7H-pyrrolo[3,2-f]quinolin-2(1H)-one [Compound 166]",,> 10000,"na (na = not active (i.e. efficacy of <20 and potency of >10,000))",24,96,17
"(±)-6,7-Dihydro-6-ethyl-4-trifluoromethyl-8H-pyrano[3,2-g]quinolin-2(1H)-one [Compound 216]",,4300,28%,11,55,8.1
"CCN1c2ccc3[nH]c(=O)cc(C(F)(F)F)c3c2CCC1(C)C [Compound 108, 8-Ethyl-5,6,7,8-tetrahydro-7,7-dimethyl-4-trifluoromethylpyridino[3,2-f]quinolin-2(1H)-one]",24,,,,,
"O=c1cc(C(F)(F)F)c2cc3c(cc2[nH]1)CCCN3CC1CC1 [Compound 201, 4-Trifluoromethyl-6-cyclopropylmethyl-6,7,8,9-tetrahydropyrido[2,3-g]quinolin-2(1H)-one]",11,,,,,
"O=c1cc(C(F)(F)F)c2c3c(ccc2[nH]1)N(Cc1ccoc1)C1CCCC31 (racemic) [Compound 126, (±)-4c,5,6,7,7a(cis),8-Hexahydro-8-(3-furanylmethyl)-4-trifluoromethyl-cyclopentano[g]pyrrolo[3,2-f]quinolin-2(1H)-one]",11,,,,,
